Laboratory results reported in patent publication US20210395313A1, “PEPTIDE PAC1 ANTAGONISTS” (AMGEN INC., priority 2017, published 2021).

Key:
[1] = rat plasma, 37° C., 0 h (baseline)
in vitro = conditions: rat, plasma
human PAC1 receptor = target: T1, human PAC1 receptor (Homo sapiens, UniProt P41586); assay: LANCE Ultra cAMP accumulation antagonist assay in SHSY-5Y cells; type: cell-based;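 note: inhibition of cAMP accumulation evoked by PAC1 agonist at its EC80 in SHSY-5Y cells endogenously expressing receptor, 30 min preincubation then 15 min agonist, TR-FRET readout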
T1 construct: SHSY-5Y (human neuroblastoma cell line) and RG-2 (rat glioma cell line) cells endogenously express human and rat PAC1 receptors, respectively; endogenous in cells; host or cells: SHSY-5Y human neuroblastoma cells
T1 sequence (P41586 21-468): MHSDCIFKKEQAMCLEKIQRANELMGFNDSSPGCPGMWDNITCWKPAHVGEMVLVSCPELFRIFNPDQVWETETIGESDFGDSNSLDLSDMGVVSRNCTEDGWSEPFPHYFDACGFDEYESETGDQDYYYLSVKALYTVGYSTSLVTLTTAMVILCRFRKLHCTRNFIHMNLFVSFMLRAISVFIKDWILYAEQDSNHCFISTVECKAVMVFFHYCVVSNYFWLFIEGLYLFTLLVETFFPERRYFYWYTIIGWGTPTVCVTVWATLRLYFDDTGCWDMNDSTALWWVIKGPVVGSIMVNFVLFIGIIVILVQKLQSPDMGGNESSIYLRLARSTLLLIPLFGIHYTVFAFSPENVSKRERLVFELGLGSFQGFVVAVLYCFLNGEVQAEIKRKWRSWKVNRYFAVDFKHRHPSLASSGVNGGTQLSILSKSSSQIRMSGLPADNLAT

rat PAC1 receptor = target: T2, rat PAC1 receptor (Rattus norvegicus, UniProt P32215); assay: LANCE Ultra cAMP accumulation antagonist assay in RG-2 cells; type: cell-based;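 note: RG-2 rat glioma cells endogenously expressing PAC1, test peptide preincubated 30 min, then PAC1 agonist added at its EC80 for 15 min, cAMP accumulation read by LANCE Ultra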
T2 construct: SHSY-5Y (human neuroblastoma cell line) and RG-2 (rat glioma cell line) cells endogenously express human and rat PAC1 receptors, respectively; endogenous in cells; host or cells: RG-2 rat glioma cells
T2 sequence (P32215 20-523): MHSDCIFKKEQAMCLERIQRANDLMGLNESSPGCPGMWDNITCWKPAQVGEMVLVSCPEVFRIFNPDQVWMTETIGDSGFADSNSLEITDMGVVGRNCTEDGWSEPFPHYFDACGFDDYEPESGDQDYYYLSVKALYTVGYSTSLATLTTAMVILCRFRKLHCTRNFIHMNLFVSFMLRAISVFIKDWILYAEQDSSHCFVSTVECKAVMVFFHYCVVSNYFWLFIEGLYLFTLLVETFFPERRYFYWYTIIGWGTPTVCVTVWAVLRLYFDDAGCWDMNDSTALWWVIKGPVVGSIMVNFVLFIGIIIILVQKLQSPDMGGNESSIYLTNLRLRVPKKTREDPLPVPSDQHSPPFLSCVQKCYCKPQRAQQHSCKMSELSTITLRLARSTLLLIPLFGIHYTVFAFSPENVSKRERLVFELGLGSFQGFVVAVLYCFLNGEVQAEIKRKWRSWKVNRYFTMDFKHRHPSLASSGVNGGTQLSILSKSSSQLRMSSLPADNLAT
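Throughout, for % Intact Peptide Remaining: peptides incubated in vitro in rat plasma at 37 °C up to 6 h, intact peptide quantified by LC-MS versus internal standard, expressed relative to pre-incubation baseline (100%).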

CC[C@H](C)[C@H](NC(=O)[C@H](C)NC(=O)[C@H](CCCCN)NC(=O)[C@H](CCCNC(=N)N)NC(=O)[C@H](Cc1ccccc1)NC(=O)[C@H](CCC(N)=O)NC(=O)[C@@H]1CSSC[C@H](N)C(=O)N[C@@H](CC(=O)O)C(=O)N[C@@H](C)C(=O)N[C@@H]([C@@H](C)O)C(=O)N1)C(=O)N[C@@H](CC(=O)O)C(=O)N[C@@H](CC(=O)O)C(=O)N[C@H]1CSSC[C@@H](C(=O)N[C@@H](CCSC)C(=O)N[C@@H](CCCCN)C(=O)N[C@@H](CCC(N)=O)C(=O)N[C@@H](CCCCN)C(=O)N[C@@H](CCCCN)C(=O)N[C@@H](CCCCN)C(=O)N[C@@H](CCC(=O)O)C(=O)N[C@@H](Cc2ccccc2)C(=O)N[C@@H](CCCCN)C(=O)N[C@@H](C)C(=O)NCC(N)=O)NC(=O)C(C)(C)NC(=O)[C@H](CCCCN)NC(=O)[C@H](Cc2ccccc2)NC(=O)[C@H](C(C)C)NC(=O)[C@H](CO)NC(=O)[C@H](C(C)C)NC(=O)[C@H](CO)NC(=O)[C@H]([C@@H](C)O)NC(=O)[C@H](CCC(N)=O)NC(=O)[C@H](CC(C)C)NC(=O)CNC(=O)[C@@H]2CCCN2C(=O)[C@H](C(C)C)NC(=O)[C@H](CC(N)=O)NC(=O)[C@H](CO)NC(=O)[C@H](Cc2c[nH]cn2)NC(=O)[C@H](Cc2c[nH]cn2)NC(=O)[C@H](C)NC(=O)[C@H](CCC(N)=O)NC(=O)[C@H](CCCCN)NC(=O)[C@H](CCC(N)=O)NC1=O [SEQ ID NO 197]
% Intact Peptide Remaining [1]: 100%
remaining at 0.5 h (in vitro): 95.2%
remaining at 1 h (in vitro): 98.9%
remaining at 2 h (in vitro): 91.9%
remaining at 4 h (in vitro): 89%
remaining at 6 h (in vitro): 87.5%

CC[C@H](C)[C@H](NC(=O)[C@H](C)NC(=O)[C@H](CCCCN)NC(=O)[C@H](CCCNC(=N)N)NC(=O)[C@H](Cc1ccccc1)NC(=O)[C@H](CCC(N)=O)NC(=O)[C@@H]1CSSC[C@H](N)C(=O)N[C@@H](CC(=O)O)C(=O)N[C@@H](C)C(=O)N[C@@H]([C@@H](C)O)C(=O)N1)C(=O)N[C@@H](CC(=O)O)C(=O)N[C@@H](CC(=O)O)C(=O)N[C@H]1CSSC[C@@H](C(=O)N[C@@H](CCSC)C(=O)N[C@@H](CCCCN)C(=O)N[C@@H](CCC(N)=O)C(=O)N[C@@H](CCCCN)C(=O)N[C@@H](CCCCN)C(=O)N[C@@H](CCCCN)C(=O)N[C@@H](CCC(=O)O)C(=O)N[C@@H](Cc2ccccc2)C(=O)N[C@@H](CCCCN)C(N)=O)NC(=O)C(C)(C)NC(=O)[C@H](CCCCN)NC(=O)[C@H](Cc2ccccc2)NC(=O)[C@H](C(C)C)NC(=O)[C@H](CO)NC(=O)CNC(=O)[C@@H]2CCCN2C(=O)[C@H](C(C)C)NC(=O)[C@H](CC(N)=O)NC(=O)[C@H](CO)NC(=O)[C@H](Cc2c[nH]cn2)NC(=O)[C@H](Cc2c[nH]cn2)NC(=O)[C@H](C)NC(=O)[C@H](CCC(N)=O)NC(=O)[C@H](CCCCN)NC(=O)[C@H](CC(=O)O)NC1=O [compound 271]
IC50 (human PAC1 receptor): 1 to 100 nM
IC50 (rat PAC1 receptor): 0.01 to 1 nM

CCCC[C@H](NC(=O)[C@@H]1CSSC[C@H](NC(=O)[C@H](CC(=O)O)NC(=O)[C@H](CC(=O)O)NC(=O)[C@@H](NC(=O)[C@H](C)NC(=O)[C@H](CCCCN)NC(=O)[C@H](CCCNC(=N)N)NC(=O)[C@H](Cc2ccccc2)NC(=O)[C@H](CCC(N)=O)NC(=O)[C@@H]2CSSC[C@H](N)C(=O)N[C@@H](CC(=O)O)C(=O)N[C@@H](C)C(=O)N[C@@H]([C@@H](C)O)C(=O)N2)[C@@H](C)CC)C(=O)N[C@@H](CC(=O)O)C(=O)N[C@@H](CCCCN)C(=O)N[C@@H](CCC(N)=O)C(=O)N[C@@H](C)C(=O)N[C@@H](Cc2c[nH]cn2)C(=O)N[C@@H](Cc2c[nH]cn2)C(=O)N[C@@H](CO)C(=O)N[C@@H](CO)C(=O)N[C@@H](Cc2ccccc2)C(=O)N[C@@H](CCCCN)C(=O)NC(C)(C)C(=O)N1)C(=O)N[C@@H](CCCCN)C(=O)N[C@@H](CCC(N)=O)C(=O)N[C@@H](CCCCN)C(=O)N[C@@H](CCCCN)C(=O)N[C@@H](CCCCN)C(=O)N[C@@H](CCC(=O)O)C(=O)N[C@@H](Cc1ccccc1)C(=O)N[C@@H](CCCCN)C(N)=O [compound 274]
IC50 (human PAC1 receptor): 1 to 100 nM
IC50 (rat PAC1 receptor): 1 to 100 nM

CC[C@H](C)[C@H](NC(=O)[C@H](C)NC(=O)[C@H](CCCCN)NC(=O)[C@H](CCCNC(=N)N)NC(=O)[C@H](Cc1ccccc1)NC(=O)[C@H](CCC(N)=O)NC(=O)[C@@H]1CSSC[C@H](N)C(=O)N[C@@H](CC(=O)O)C(=O)N[C@@H](C)C(=O)N[C@@H]([C@@H](C)O)C(=O)N1)C(=O)N[C@@H](CC(=O)O)C(=O)N[C@@H](CC(=O)O)C(=O)N[C@H]1CSSC[C@@H](C(=O)N[C@@H](CCSC)C(=O)N[C@@H](CCCCN)C(=O)N[C@@H](CCC(N)=O)C(=O)N[C@@H](CCCCN)C(=O)N[C@@H](CCCCN)C(=O)N[C@@H](CCCCN)C(=O)N[C@@H](CCC(=O)O)C(=O)N[C@@H](Cc2ccccc2)C(=O)N[C@@H](CCCCN)C(N)=O)NC(=O)[C@H](CCC(=O)O)NC(=O)[C@H](CCCCN)NC(=O)[C@H](Cc2ccccc2)NC(=O)[C@H](C(C)C)NC(=O)[C@H](CO)NC(=O)[C@H](CC(N)=O)NC(=O)CNC(=O)[C@@H]2CCCN2C(=O)[C@H](C(C)C)NC(=O)[C@H](CC(N)=O)NC(=O)[C@H](CO)NC(=O)[C@H](Cc2c[nH]cn2)NC(=O)[C@H](Cc2c[nH]cn2)NC(=O)[C@H](C)NC(=O)C(C)(C)NC(=O)[C@H](CCCCN)NC(=O)[C@H](CCC(N)=O)NC1=O [compound 286]
IC50 (human PAC1 receptor): 1 to 100 nM
IC50 (rat PAC1 receptor): 1 to 100 nM

CC[C@H](C)[C@H](NC(=O)[C@H](C)NC(=O)[C@H](CCCCN)NC(=O)[C@H](CCCNC(=N)N)NC(=O)[C@H](Cc1ccccc1)NC(=O)[C@H](CCC(N)=O)NC(=O)[C@@H]1CSSC[C@H](N)C(=O)N[C@@H](CC(=O)O)C(=O)N[C@@H](C)C(=O)N[C@@H]([C@@H](C)O)C(=O)N1)C(=O)N[C@@H](CC(=O)O)C(=O)N[C@@H](CC(=O)O)C(=O)N[C@H]1CSSC[C@@H](C(=O)N[C@@H](CCSC)C(=O)N[C@@H](CCCCN)C(=O)N[C@@H](CCC(N)=O)C(=O)N[C@@H](CCCCN)C(=O)N[C@@H](CCCCN)C(=O)N[C@@H](CCCCN)C(=O)N[C@@H](CCC(=O)O)C(=O)N[C@@H](Cc2ccccc2)C(=O)N[C@@H](CCCCN)C(N)=O)NC(=O)[C@H](CCC(=O)O)NC(=O)[C@H](CCCCN)NC(=O)[C@H](Cc2ccccc2)NC(=O)[C@H](C(C)C)NC(=O)[C@H](CO)NC(=O)[C@H](CC(N)=O)NC(=O)CNC(=O)[C@@H]2CCCN2C(=O)[C@H](C(C)C)NC(=O)[C@H](CC(N)=O)NC(=O)[C@H](CO)NC(=O)C(C)(C)NC(=O)[C@H](Cc2c[nH]cn2)NC(=O)[C@H](C)NC(=O)[C@H](CCC(N)=O)NC(=O)[C@H](CCCCN)NC(=O)[C@H](CCC(N)=O)NC1=O [compound 289]
IC50 (human PAC1 receptor): 1 to 100 nM
IC50 (rat PAC1 receptor): 1 to 100 nM
